Laboratory results: BindingDB's records for doi:10.1021/jm0602256 (Wyeth Research, 2007)

Target: P-selectin (Homo sapiens) (UniProt P16109)
Test: Inhibition of P-selectin-mediated adhesion of HL60 cells

- IC50: 70 µM
Compound: O=C(O)Cc1cccc(-c2cc(CCCCCCc3ccc(O[C@H]4O[C@H](CO)[C@@H](O)[C@H](O)[C@@H]4O)c(-c4cccc(CC(=O)O)c4)c3)ccc2O[C@H]2O[C@H](CO)[C@@H](O)[C@H](O)[C@@H]2O)c1 [TBC-1269]
